The record followed here is patent US10119958B2, “Arrays and methods for guided cell patterning” (University of Washington, priority 2007, dated 2018).

Like-named read-outs stand apart in the source and are kept apart here.

The data set concerns RAW264.7 cells (murine monocyte/macrophage).
[1] abbreviates: LPS 10 μg/mL, single cells, 238 electrodes.

Regarding lipopolysaccharide [LPS], under “LPS 0.1 μg/mL”, the apoptosis entry is listed as “less than 8%” and the necrosis entry is “no necrosis was identified”. Besides, under “LPS 1.0 μg/mL”, the apoptosis result is reported as “less than 8%” and the necrosis result is on record as “no necrosis was identified”. Under setting [1], the “apoptosis (positive Annexin V staining)” value is 66.5% and the “necrosis (positive propidium iodide staining)” value is 41.1%.
